Source: PubChem BioAssay (EPA / NIEHS)
The list shows a part of the results, in another mix than the full data. Results filed as inconclusive are left out. Activity calls are given as the source filed them. How the source made its calls, unless noted: active means hit-call score of the fitted dose curve at least 0.9, where 1 is the maximum; inactive means score below 0.9.

Protein sequences, listed by entry. Tags and fused reporters are not part of them.
UniProt P11473, whole entry: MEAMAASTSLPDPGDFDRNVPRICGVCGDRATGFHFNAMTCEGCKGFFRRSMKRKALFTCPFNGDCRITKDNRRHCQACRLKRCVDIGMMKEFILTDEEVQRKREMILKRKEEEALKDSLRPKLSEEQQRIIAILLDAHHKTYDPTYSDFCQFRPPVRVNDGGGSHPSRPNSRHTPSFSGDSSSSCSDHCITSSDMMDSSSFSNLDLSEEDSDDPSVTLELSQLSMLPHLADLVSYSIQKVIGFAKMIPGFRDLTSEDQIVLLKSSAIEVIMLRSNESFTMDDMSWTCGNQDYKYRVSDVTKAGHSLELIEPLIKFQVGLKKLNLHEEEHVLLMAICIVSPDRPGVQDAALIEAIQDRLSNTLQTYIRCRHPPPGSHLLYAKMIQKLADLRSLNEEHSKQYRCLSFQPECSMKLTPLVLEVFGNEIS

How the values were obtained:
[1] = target: human Vitamin D Receptor (VDR), VDR (gene 7421) (UniProt P11473); assay: ATG_VDR_TRANS: Attagene TRANS-FACTORIAL HepG2 Assay for human Vitamin D Receptor (VDR) (AID 2283022; active means hit-call score of the fitted dose curve at least 0.9, where 1 is the maximum)
Method in brief: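 Steps: transfect HepG2 with GAL4-UAS-driven reporter constructs; dose compounds 24 h; isolate RNA, reverse-transcribe, PCR-amplify with 6-FAM-labelled primer extension and HpaI digestion; quantify fragments by capillary electrophoresis relative to DMSO.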

[2] = read-out: Interleukin-8 (IL8), CXCL8 (gene 3576); assay: BSK_3C_IL8: BioMAP Diversity Plus: 3C Assay for Interleukin-8 (IL8) Biomarker Activity (AID 2283020); settings: actives raise or lower the signal; primary human endothelial cells (HUVEC)
Description: (§1) BSK_3C is a cell-based, multiplexed-readout assay that uses umbilical vein endothelium, a human vascular primary cell, with measurements taken at 24 hours after chemical dosing in a 96-well plate.BSK_3C_IL8 is an assay component measured in the BSK_3C assay. It measures IL-8 antibody related to regulation of gene expression using ELISA technology.Data from the assay component BSK_3C_IL8 was analyzed into 1 assay endpoint. This assay endpoint, BSK_3C_IL8, was analyzed with bidirectional fitting relative to DMSO as the negative control and baseline of activity. Using a type of binding reporter, gain or loss-of-signal activity can be used to understand changes in the signaling as they relate to the gene CXCL8. Furthermore, this assay endpoint can be referred to as a primary readout, because this assay has produced multiple assay endpoints where this one serves a signaling function. To generalize the intended target to other relatable targets, this assay endpoint is annotated to the cytokine intended target family, where the subfamily is interleukins.
(§2) The levels of cell surface (or secreted, indicated by the prefix "s") biomarker endpoints were measured by ELISA. Overt cytotoxicity to cells in confluent adherent cultures (all systems other than the BT system) was assessed by measuring total protein levels using sulforhodamine B (SRB) staining in parallel cultures at the time of biomarker measurements, indicated as SRB endpoints. For proliferation assays for adherent cell types, individual cell types are cultured at sub-confluence and relative cell numbers quantified by SRB staining at time points optimized for each system (48 h: 3C and CASM3C systems; 72 h: BT and HDF3CGF systems; 96 h: SAg system). SRB was performed by staining cells with 0.1% SRB after fixation with 10% TCA and reading wells at 560 nm.Viability and proliferation of PBMC (T cells) was quantified by Alamar Blue reduction for the SAg and BT systems. For PBMC viability (referred to as PBMC Cytotoxicity within the assay endpoint names), cells were plated (75,000/well in a 96-well plate) and then chemical samples added for 1 h before addition of activators, SEB and TSST-1 (20 ng/mL final concentration each). Cells were incubated for 90 h. Then, Alamar Blue (20 uL/well) (Invitrogen, Cat DAL1100) was added for 6 h, and the plates were read with a fluorescence microplate reader at 546/580 nm (excitation/emission). For PBMC proliferation, cells were plated and activated as above but incubated for only 16 h prior to addition of Alamar Blue. Plates were read after 6 h.

[3] = read-out: Monokine induced gamma interferon (MIG), CXCL9 (gene 4283); assay: BSK_3C_MIG: BioMAP Diversity Plus: 3C Assay for Monokine induced gamma interferon (MIG) Biomarker Activity (AID 2283021); settings: actives raise or lower the signal; primary human endothelial cells (HUVEC)
Description: as §1, with “plate.BSK_3C_MIG” for “plate.BSK_3C_IL8”, “MIG” for “IL-8”, “BSK_3C_MIG” for “BSK_3C_IL8”, “BSK_3C_MIG,” for “BSK_3C_IL8,”, “CXCL9.” for “CXCL8.”, “chemotactic factor.” for “interleukins.”
as §2

[4] = BSK_3C_SRB: Viability Assessment in the BioMAP Diversity Plus: 3C Assay (AID 2283023); settings: primary human endothelial cells (HUVEC);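 further: cells read 24 h after compound dosing; fitted both ways against DMSO so a hit may be signal rise or drop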
Method in brief: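 Absorbance at 560 nm of sulforhodamine B-stained (0.1%) total protein served as a cytotoxicity readout in human umbilical vein endothelial cells, 24 h after chemical treatment. Signal was fitted bidirectionally relative to DMSO.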

[5] = read-out: Matrix Metallopeptidase 1 (MMP1), MMP1 (gene 4312); assay: BSK_BE3C_MMP1: BioMAP Diversity Plus: BE3C Assay for Matrix Metallopeptidase 1 (MMP1) Biomarker Activity (AID 2283024); settings: actives raise or lower the signal; primary human bronchial epithelial cells
Description: BSK_BE3C is a cell-based, multiplexed-readout assay that uses bronchial epithelial cell, a human lung primary cell, with measurements taken at 24 hours after chemical dosing in a 96-well plate.BSK_BE3C_MMP1 is an assay component measured in the BSK_BE3C assay. It measures MMP-1 antibody related to regulation of gene expression using ELISA technology.Data from the assay component BSK_BE3C_MMP1 was analyzed into 1 assay endpoint. This assay endpoint, BSK_BE3C_MMP1, was analyzed with bidirectional fitting relative to DMSO as the negative control and baseline of activity. Using a type of binding reporter, gain or loss-of-signal activity can be used to understand changes in the signaling as they relate to the gene MMP1. Furthermore, this assay endpoint can be referred to as a primary readout, because this assay has produced multiple assay endpoints where this one serves a signaling function. To generalize the intended target to other relatable targets, this assay endpoint is annotated to the protease intended target family, where the subfamily is matrix metalloproteinase.
as §2

[6] = BSK_3C_Vis: BioMAP Diversity Plus: 3C Assay for Morphology Visualization (AID 2283025); settings: primary human endothelial cells (HUVEC);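 further: fitted both ways so gain or loss versus DMSO counts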
Method in brief: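 Human umbilical vein endothelial cell morphology was inspected by light microscopy 24 h after chemical dosing; scored bidirectionally relative to DMSO.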

[7] = read-out: Pselectin, SELP (gene 6403); assay: BSK_4H_Pselectin: BioMAP Diversity Plus: 4H Assay for Pselectin Biomarker Activity (AID 2283026); settings: actives raise or lower the signal; primary human endothelial cells (HUVEC)
Description: BSK_4H is a cell-based, multiplexed-readout assay that uses umbilical vein endothelium, a human vascular primary cell, with measurements taken at 24 hours after chemical dosing in a 96-well plate.BSK_4H_Pselectin is an assay component measured in the BSK_4H assay. It measures P-Selectin antibody related to regulation of gene expression using ELISA technology.Data from the assay component BSK_4H_Pselectin was analyzed into 1 assay endpoint. This assay endpoint, BSK_4H_Pselectin, was analyzed with bidirectional fitting relative to DMSO as the negative control and baseline of activity. Using a type of binding reporter, gain or loss-of-signal activity can be used to understand changes in the signaling as they relate to the gene SELP. Furthermore, this assay endpoint can be referred to as a primary readout, because this assay has produced multiple assay endpoints where this one serves a signaling function. To generalize the intended target to other relatable targets, this assay endpoint is annotated to the cell adhesion molecules intended target family, where the subfamily is selectins.
as §2

[8] = BSK_4H_SRB: Viability Assessment in the BioMAP Diversity Plus: 4H Assay (AID 2283027); settings: primary human endothelial cells (HUVEC);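 further: cells exposed to compound for 24 h before staining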;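 on AC50: curves fitted both ways versus DMSO so AC50 may be loss or gain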
Method in brief: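 Absorbance at 560 nm of SRB-stained total protein served as the viability read-out in confluent primary human umbilical vein endothelium 24 h after chemical treatment. Curves were fitted bidirectionally against DMSO as negative control.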

[9] = BSK_BE3C_SRB: Viability Assessment in the BioMAP Diversity Plus: BE3C Assay (AID 2283028); settings: primary human bronchial epithelial cells
Method in brief: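 Cells (human bronchial epithelial, primary) are treated with chemicals, and after 24 h the parallel cultures are fixed in 10% TCA. These are then stained with 0.1% SRB and read at 560 nm. Gain or loss of signal is fitted relative to DMSO.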

[10] = read-out: Thrombomodulin, THBD (gene 7056); assay: BSK_3C_Thrombomodulin: BioMAP Diversity Plus: 3C Assay for Thrombomodulin Biomarker Activity (AID 2283029); settings: actives raise or lower the signal; primary human endothelial cells (HUVEC)
Method in brief: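 Human umbilical vein endothelial cells were exposed to chemicals for 24 h; cell-surface thrombomodulin quantified by ELISA, with bidirectional fitting against DMSO baseline.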

Measured: AC50

CN(C)CCCl
inactive: [1]

COc1ccc([N+](=O)[O-])cc1[N+](=O)[O-]
inactive: [1]

O=[N+]([O-])c1cccc([N+](=O)[O-])c1
inactive: all assays above

Cc1cccc([N+](=O)[O-])c1[N+](=O)[O-]
inactive: all assays above

N#CBr
inactive: [1]

COP(C)(=O)OC
inactive: [1]

O=[N+]([O-])OCC(CO[N+](=O)[O-])(CO[N+](=O)[O-])CO[N+](=O)[O-]
inactive: [1]

Cc1ccc([N+](=O)[O-])cc1[N+](=O)[O-]
inactive: all assays above

CC(C)OP(C)(=O)OC(C)C
active: [8] 20 µM
not listed: [1]
inactive: all other assays above

Cc1c([N+](=O)[O-])cccc1[N+](=O)[O-]
not listed: [1]
inactive: all other assays above

Cc1ccc([N+](=O)[O-])c([N+](=O)[O-])c1
active: [10] 0.05 µM
not listed: [1]
inactive: all other assays above
